Test results taken from patent US20200055883A1.
Like-named read-outs stand apart in the source and are kept apart here.

Amino acid sequences for entries named in this document (tags omitted).
UniProt Q86WV6, whole entry R71H/G230A/H232R/R293Q: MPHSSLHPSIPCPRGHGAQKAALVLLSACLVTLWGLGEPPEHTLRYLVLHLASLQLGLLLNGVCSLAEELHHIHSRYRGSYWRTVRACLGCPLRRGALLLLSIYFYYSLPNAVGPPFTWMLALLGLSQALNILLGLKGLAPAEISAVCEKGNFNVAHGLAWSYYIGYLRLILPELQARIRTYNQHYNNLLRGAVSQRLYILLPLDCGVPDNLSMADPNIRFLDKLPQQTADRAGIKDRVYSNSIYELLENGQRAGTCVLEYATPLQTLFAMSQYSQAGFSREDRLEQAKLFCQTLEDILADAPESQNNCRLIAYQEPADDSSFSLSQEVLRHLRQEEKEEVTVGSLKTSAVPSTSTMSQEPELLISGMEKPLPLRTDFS

Biological target: Human STING HAQ (Homo sapiens, UniProt Q86WV6, G230A/H232R/R293Q/R71H)
Assay: HAQ STING agonist activity reporter assay (THP1-Dual cells)
[1] = read-out: Human STING EC50 (μM) HAQ, Table 4, ammonium salt form of each compound, 20 hrs, tested form: NH4 salt
[2] = read-out: Human STING EC50 (μM) HAQ, Table 4, ammonium salt form of each compound, 20 hrs

Row | EC50 [1] | Compound | further results
1 | – | O=P1(S)OC[C@H]2O[C@@H]3[C@H](F)[C@@H]2OP(=O)(S)OC[C@H]2O[C@H]([C@H](F)[C@@H]2O1)n1cnc2c(ncnc21)NCCC=CCNc1ncnc2c1ncn23 (stereo partly shown) | EC50 (read-out: Human STING EC50 (μM) HAQ, Table 5, ammonium salt form of each compound, 20 hrs): > 100 µM
2 | > 100 µM | O=[P@]1(S)OC[C@H]2O[C@@H]3[C@H](O)[C@@H]2O[P@](=O)(S)OC[C@H]2O[C@H]([C@H](O1)[C@@H]2O)n1cnc2c(ncnc21)NCC/C=C/CNc1ncnc2c1ncn23 | –
3 | – | O=[P@]1(S)OC[C@H]2O[C@@H]3[C@H](F)[C@@H]2O[P@@](=O)(S)OC[C@H]2O[C@H]([C@H](F)[C@@H]2O1)n1cnc2c(ncnc21)CC/C=C/CCc1ncnc2c1ncn23 | EC50 (read-out: hSTING EC50 (μM) HAQ, Table 6, ammonium salt form, except Compounds 26, 33, 34 tested as bis-TEA salts, tested form: NH4 salt): > 100 µM
4 | > 100 µM | O=[P@]1(S)OC[C@H]2O[C@@H]3[C@H](O)[C@@H]2O[P@@](=O)(S)OC[C@H]2O[C@H]([C@H](O1)[C@@H]2O)n1cnc2c(ncnc21)NC/C=C\CNc1ncnc2c1ncn23 | –
5 | > 100 µM | O=[P@]1(S)OC[C@H]2O[C@@H]3[C@H](O)[C@@H]2O[P@@](=O)(S)OC[C@H]2O[C@H]([C@H](O1)[C@@H]2O)n1cnc2c(ncnc21)NC/C=C/CNc1ncnc2c1ncn23 | –
6 | – | O=P1(S)OC[C@H]2O[C@@H]3[C@H](O)[C@@H]2OP(=O)(S)OC[C@H]2O[C@H]([C@H](O1)[C@@H]2O)n1cnc2c(ncnc21)NCC=CCCNc1ncnc2c1ncn23 (single isomer, unassigned) | EC50 [2]: > 100 µM
7 | > 100 µM | O=[P@]1(S)OC[C@H]2O[C@@H]3[C@H](O)[C@@H]2O[P@](=O)(S)OC[C@H]2O[C@H]([C@H](O1)[C@@H]2O)n1cnc2c(ncnc21)NC/C=C\CNc1ncnc2c1ncn23 | –
8 | > 100 µM | O=[P@@]1(S)OC[C@H]2O[C@@H]3[C@H](O)[C@@H]2O[P@](=O)(S)OC[C@H]2O[C@H]([C@H](O1)[C@@H]2O)n1cnc2c(ncnc21)NC/C=C/CCNc1ncnc2c1ncn23 | –
9 | – | O=[P@]1(S)OC[C@H]2O[C@@H]3[C@H](O)[C@@H]2O[P@](=O)(S)OC[C@H]2O[C@H]([C@H](O1)[C@@H]2O)n1cnc2c(ncnc21)NCC=CCCNc1ncnc2c1ncn23 | EC50 [2]: > 100 µM
10 | > 100 µM | O=[P@@]1(S)OC[C@H]2O[C@@H]3[C@H](F)[C@@H]2O[P@](=O)(S)OC[C@H]2O[C@H]([C@H](O1)[C@@H]2O)n1cnc2c(ncnc21)NC/C=C\CNc1ncnc2c1ncn23 | –
